Structures are written as SMILES.

The data set can be described thus: 1-Octanol-phosphate buffer partition coefficient, log P of the compound at pH 7.4 after 30 mins by shake-flask method. Type of data set: physicochemical. The procedure, abridged: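 Shake-flask: about 0.01–0.1 mg/mL compound shaken in 1-octanol and 50 mM phosphate buffer (pH 7.4) for 30 min at room temperature. Equal amounts of each phase quantified by HPLC UV absorbance (C18, isocratic ethanol:water). Triplicate, mean ± SD.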

What is called logD is the decadic logarithm of the distribution of all forms, ionised or not, between an organic phase and buffer at a given pH. A high value points to higher lipophilicity. In turn, `O=[N+]([O-])c1nccn1CC(O)CF` (stereo unspecified) [FLUOROMISONIDAZOLE] registered a logD at 0.5 h of -0.33.
